From PubChem
PDI inh – PDI (human) enzyme inhibition | 350,000 compounds, 0.052% hits | AID 588391 | PDI insulin aggregation turbidity, A650, 90 min | inhibition, % at 10 µM;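 active = mean inhibition across replicates of 30% or more, whatever share of single replicates reach that level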
UUG fidelity – alters start codon recognition fidelity in yeast. S. cerevisiae UUG-firefly luciferase reporter, luminescence/redox ratio. 350,000 tested, 0.13% active. activity score, % at 18.7 µM. AID 602363;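 active means replicate mean at a twofold rise or more, about +100% in these data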;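 further: firefly luciferase made from a UUG start codon reports start codon fidelity; reporter light over untreated wells divided by growth signal over untreated wells; some hits fall short of that in this replicate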
ARNT-TACC3 inh – disruptors of human ARNT/TACC3 interaction | inhibition, % at 9.99 µM | AID 623870 | Q9Y6A5 | 390,000 compounds, 0.66% hits | AlphaScreen His-ARNT PAS-B/GST-TACC3 binding, luminescence; TACC3 fragment carries E629A point mutation;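 active = mean inhibition of replicates at least 50% and at least half of replicates each reaching 50%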;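 also: 0% = complete ARNT plus TACC3 wells and 100% = ARNT alone without TACC3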
ERp5 inh – blocks human ERp5 reductase activity on insulin. ERp5 insulin aggregation, absorbance 650 nm, 90 min. inhibition, % at 9.99 µM. 350,000 compounds, 0.05% hits. AID 651711. Q15084;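 active = mean replicate inhibition above about 25%, with every replicate also reaching it, limit read from the data, passing the limit was not always enough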
PglD inh – blocks C. jejuni PglD acetyltransferase activity; 360,000 compounds, 0.098% hits; inhibition, % at 12.5 µM; purified PglD enzyme, DTNB colorimetric CoA detection; in the data active = inhibition above about 16%, passing the limit was not always enough
FGF22 binding – FGF22 (human) thermal shift binding. recombinant FGF22 thermal shift, SYPRO orange fluorescence; percent of sucrose octasulfate shift, DMSO zero. 340,000 compounds, 1.5% hits. Q9HCT0. activity (Tm shift, normalised), % at 9.99 µM. AID 651658;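 active = mean Tm shift, scaled 0 neutral to 100 positive control, at about 1.3% or above, every replicate too, limit read from the data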
Active calls of the source: *; / = no result. A selection: hits, their analogues and other compounds. The true share with any hit is near 1.9%.

Start of the listing, in advance, 3 compounds:
1. COc1ccc(CC2(CO)CCN(Cc3ccc4nsnc4c3)CC2)cc1
2. CCOc1ncccc1C(=O)OC(C)C(=O)NC(=O)NC1CCCCC1 (stereo not given)
3. C/C(=N\NC(=O)COc1ccc(C)cc1[N+](=O)[O-])c1cccs1

assay / entry,1,2,3
PDI inh,-5,2,-1
UUG fidelity,/,/,/
ARNT-TACC3 inh,0,4,4
ERp5 inh,3,-1,4
PglD inh,/,/,/
FGF22 binding,43*,43*,0

The list itself, repeating the preview:
1. COc1ccc(CC2(CO)CCN(Cc3ccc4nsnc4c3)CC2)cc1
2. CCOc1ncccc1C(=O)OC(C)C(=O)NC(=O)NC1CCCCC1 (stereo not given)
3. C/C(=N\NC(=O)COc1ccc(C)cc1[N+](=O)[O-])c1cccs1
4. C/C(=N\NC(=O)COc1ccc(C)cc1Br)c1cc([N+](=O)[O-])cs1
5. CN1C(=O)c2cc(NS(C)(=O)=O)ccc2OC[C@H]2O[C@@H](CC(=O)Nc3cccc(F)c3)CC[C@@H]21
6. C/C=C/c1ccc2c(c1)O[C@@H](CN(C)C(=O)Nc1cc(F)ccc1F)[C@@H](C)CN([C@@H](C)CO)S2(=O)=O
7. C[C@H]1CN([C@@H](C)CO)S(=O)(=O)c2ccc(/C=C/c3ccccc3)cc2O[C@H]1CN(C)C(=O)Nc1cc(F)ccc1F
8. C/C=C/c1ccc2c(c1)O[C@@H](CN(C)C(=O)Nc1ccc(C(F)(F)F)cc1)[C@@H](C)CN([C@H](C)CO)S2(=O)=O
9. C/C=C/c1ccc2c(c1)O[C@H](CN(C)C(=O)Nc1ccc(C(F)(F)F)cc1)[C@H](C)CN([C@H](C)CO)S2(=O)=O
10. C/C=C/c1ccc2c(c1)O[C@H](CN(C)C(=O)Nc1ccc(C(F)(F)F)cc1)[C@@H](C)CN([C@@H](C)CO)S2(=O)=O

assay / entry,1,2,3,4,5,6,7,8,9,10
PDI inh,-5,2,-1,-6,/,/,/,/,/,/
UUG fidelity,/,/,/,-5,3,-10,4,-19,-24,-3
ARNT-TACC3 inh,0,4,4,-15,-1,9,25,4,19,-9
ERp5 inh,3,-1,4,20,/,0,4,5,14,14
PglD inh,/,/,/,-1,-1,2,0,4,0,3
FGF22 binding,43*,43*,0,43*,0,1,1.8*,1.4*,1.8*,-1

11. COc1cccc(S(=O)(=O)Nc2ccc3c(c2)[C@@H]2C[C@H](CC(=O)N4CCCCC4)O[C@@H](CO)[C@@H]2O3)c1
12. CO[C@H]1CN(C)C(=O)c2cc(NC(=O)C3CC3)ccc2OC[C@@H](C)N(Cc2nccs2)C[C@H]1C
13. COCC(=O)N1CCC2(CC1)CN(C(=O)c1ccccn1)[C@@H](CO)c1c2c2ccc(OC)cc2n1C
14. Cc1nnc(NC(=O)c2ccc(-c3ccc(Cl)cc3)o2)s1
15. CN(C)C(=O)c1ccc(NC(=O)c2ccc(-c3ccc(Cl)cc3)o2)cc1
16. CO[C@@H]1CN(C)C(=O)c2cc(NC(=O)Nc3cccc(F)c3)ccc2OC[C@H](C)N(C)C[C@H]1C
17. CC(C)(CO)NCC(O)Cn1cc(C=O)c2ccccc21 (stereo not given)
18. Cn1cnc(S(=O)(=O)N2[C@@H]3CNC[C@H]2C3c2ccc(-c3ccncc3)cc2)c1 (stereo not given in full)
19. O=C(Nc1ccc(N2CCN(C(=O)c3ccccc3)CC2)cc1)c1cccnc1
20. O=C(Nc1ccc(N2CCN(C(=O)c3cccs3)CC2)cc1)c1cccnc1

assay / entry,11,12,13,14,15,16,17,18,19,20
PDI inh,/,/,/,-3,5,/,-3,/,-3,2
UUG fidelity,/,-5,/,-4,-2,-2,/,/,22,5
ARNT-TACC3 inh,3,-6,/,-4,-29,-1,-6,/,/,-1
ERp5 inh,2,5,-12,0,-4,-3,4,-1,0,-3
PglD inh,-2,2,/,5,-1,0,/,/,-7,2
FGF22 binding,0,0,0,0,1.8*,0,43*,/,0,43*

21. Cc1ccc(-c2ccc3nnc(SCC(N)=O)n3n2)cc1
22. NC(=O)CSc1nnc2ccc(-c3ccc(Cl)cc3)nn12
23. COc1ccc(NC(=O)N(C)C[C@H]2OCCCC[C@@H](C)Oc3ccc(NC(=O)NC(C)C)cc3C(=O)N([C@H](C)CO)C[C@H]2C)cc1
24. O=C(c1ccccc1O)N1CCOCC1
25. COc1ccccc1NC(=O)N1C[C@H](O)COC[C@H]2O[C@@H](CC(=O)N3CCC(Cc4ccccc4)CC3)CC[C@@H]21
26. O=C(COC(=O)c1nc(Cl)ccc1Cl)c1ccc(Cl)s1
27. O=C(COC(=O)c1nc(Cl)ccc1Cl)c1ccccc1Cl
28. CO[C@@H]1CN(C)C(=O)c2cc(NC(=O)c3ccccc3F)ccc2OC[C@H](C)NC[C@H]1C
29. FC(F)c1nnc2c(Cl)cc(C(F)(F)F)cn12
30. C[C@H](CO)N1C[C@H](C)[C@H](CN(C)Cc2ccccc2)Oc2cc(C#Cc3ccccn3)ccc2S1(=O)=O

assay / entry,21,22,23,24,25,26,27,28,29,30
PDI inh,1,8,/,-17,/,-13,-9,/,6,/
UUG fidelity,/,/,4,-9,5,/,-8,/,/,-5
ARNT-TACC3 inh,5,-1,-6,5,2,/,1,-1,0,-8
ERp5 inh,-4,4,-3,-2,2,1,3,2,5,-4
PglD inh,/,/,0,3,-1,/,1,0,/,-4
FGF22 binding,43*,/,1,43*,0,44*,0,0,44*,0

31. CC1CCC(C(C)C)C(OC(=O)Cn2c(-c3ccc(Br)cc3)[n+](C)c3ccccc32)C1 (stereo not given)
32. Cc1ccccc1OCc1n(CC(=O)OC2CC(C)CCC2C(C)C)c2ccccc2[n+]1C (stereo not given)
33. C[C@@H]1CN([C@H](C)CO)C(=O)c2cc(NC(=O)Cc3ccccc3)ccc2O[C@@H]1CN(C)C(=O)Nc1ccccc1
34. COc1ccc2c3c([nH]c2c1)[C@H](CO)N(C(=O)C1CC1)CC31CN(Cc2nccs2)C1
35. CCC(C)NC(=O)C(Sc1ccccc1)c1ccccc1 (stereo not given)
36. COc1ccc(C(=O)Nc2ccc(C(F)(F)F)n(C)c2=O)cc1
37. COc1ccc2cc(C(c3nnnn3CC3CCCO3)N3CCOCC3)c(=O)[nH]c2c1 (stereo not given)
38. COc1ccc2[nH]c(=O)c(C(c3nnnn3CC3CCCO3)N3CCCCC3)cc2c1 (stereo not given)
39. COc1cc(CNCc2ccccn2)ccc1OCC(=O)NC1CCCCC1
40. CCOc1cc(CNCc2ccccc2)ccc1OCC(=O)NC1CCCCC1

assay / entry,31,32,33,34,35,36,37,38,39,40
PDI inh,5,-38,/,/,-7,-8,-2,18,-1,3
UUG fidelity,5,/,1,/,/,/,-14,/,/,-1
ARNT-TACC3 inh,-8,15,-2,/,/,/,-6,-9,47*,/
ERp5 inh,-2,-5,-1,-7,-3,1,/,5,/,-21
PglD inh,-3,/,-2,/,/,/,2,/,/,-6
FGF22 binding,0,43*,0,0,43*,44*,/,43*,/,0

41. COc1cc(CNCc2ccccn2)ccc1OCC(=O)NC(C)(C)C
42. COc1cc(CNCc2cccnc2)ccc1OCC(=O)NC(C)(C)C
43. Cc1noc(NS(=O)(=O)c2ccc(NC(=O)/C=C/c3ccc(C(C)C)cc3)cc2)c1C
44. C[C@@H]1CN([C@H](C)CO)C(=O)Cc2cc(NC(=O)NC3CCCCC3)ccc2O[C@@H]1CN(C)Cc1ccc(C(F)(F)F)cc1

assay / entry,41,42,43,44
PDI inh,2,-3,3,/
UUG fidelity,/,/,12,11
ARNT-TACC3 inh,82*,-4,-1,0
ERp5 inh,/,2,-3,-4
PglD inh,/,/,5,-1
FGF22 binding,/,0,1.4*,0
